Laboratory results from patent publication US20070297980A1, “Geldanamycin and Derivatives Inhibit Cancer Invasion and Identify Novel Targets” (priority 2004, published 2007).

Experiments:
[1] = test system: HGF/SF-induced MDCK cell scattering; assay: Scatter assay, MDCK cells; assay type: cell-based, canine; conditions: FIG. 10
Method: Scatter Assay. In parallel with assessing uPA activity, 96-well plates of MDCK cells were used to detect cell scattering. Cell preparation was same as above (plasmin assay) described above. At the same time as uPA activity was measured, the cells being assayed for scatter were fixed, stained (Diff-Quik Set, Dade Behring AG) and photographed.

[2] = test system: HGF/SF-induced uPA activity in MDCKG3 cells; conditions: MDCKG3 cells chronically exposed to MA
Method: Drugs were dissolved in DMSO and serially diluted from stock concentrations into DMEM/10% FBS medium and added to the appropriate wells. Immediately after drug or reagent addition, HGF/SF (60 ng/ml) was added to all wells (with the exception of wells used as controls to calculate basal growth and uPA-plasmin activity levels).

COC1=C2C[C@@H](C)C[C@H](OC)[C@H](O)[C@@H](C)/C=C(\C)[C@H](OC(N)=O)[C@@H](OC)/C=C\C=C(/C)C(=O)NC(=CC1=O)C2=O [Compound 1, (+)-Geldanamycin]
concentration range inhibiting HGF/SF-induced MDCK cell scattering [1]: pM to fM range
concentration at which effective against HGF/SF-induced uPA activity [2]: 10^−3 M
